In patent publication US20020183309A1, “Novel amines as histamine-3 receptor ligands and their therapeutic applications” (priority 2001, published 2002) one finds Ki data, which are given here for 15 molecules.

Amino acid sequences for entries named in this document (tags omitted). A change or cut given only in a name is not applied to a line headed by its entry.
UniProt Q9QYN8: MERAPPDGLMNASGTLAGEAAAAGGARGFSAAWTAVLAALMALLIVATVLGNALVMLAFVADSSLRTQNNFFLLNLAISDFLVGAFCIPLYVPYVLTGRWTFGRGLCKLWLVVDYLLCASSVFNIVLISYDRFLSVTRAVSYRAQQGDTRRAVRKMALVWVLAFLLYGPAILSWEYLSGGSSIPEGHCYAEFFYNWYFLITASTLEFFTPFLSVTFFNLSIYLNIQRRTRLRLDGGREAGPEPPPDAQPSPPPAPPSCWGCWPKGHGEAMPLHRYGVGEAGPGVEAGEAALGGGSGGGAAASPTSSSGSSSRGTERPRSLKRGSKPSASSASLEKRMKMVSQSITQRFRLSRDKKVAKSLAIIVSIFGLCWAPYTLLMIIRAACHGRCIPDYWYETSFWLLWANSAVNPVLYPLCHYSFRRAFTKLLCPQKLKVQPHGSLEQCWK

Structures are written as SMILES. Read-outs that look alike come from different tables or passages of the source.

The experiment concerns the target T1, histamine-3 receptors (H3 receptor) (Rattus norvegicus, UniProt Q9QYN8).
T1 construct: from tissue; host or cells: male Sprague-Dawley rat brain cortex membranes
In words: (3H)-N-α-methylhistamine binding to rat cortical membranes. Here is the method:
Briefly, male Sprague-Dawley rat brain cortices were homogenized (1 g tissue/10 mL buffer) in 50 mM Tris-HCl/5 mM EDTA containing protease inhibitor cocktail (Calbiochem) using a polytron set at 20,500 rpm. Homogenates were centrifuged for 20 minutes at 40,000×g. The supernatant was decanted, and pellets were weighed. The pellet was resuspended by polytron homogenization in 40 mL 50 mM Tris-HCl/5 mM EDTA with protease inhibitors and centrifuged for 20 minutes at 40,000×g. […] Rat cortical membranes (12 mg wet weight/tube) were incubated with (^3H)-N-α-methylhistamine (˜0.6 nM) with or without H3 receptor antagonists in a total incubation volume of 0.5 mL of 50 mM Tris-HCl/5 mM EDTA (pH 7.7). Test compounds were dissolved in DMSO to provide a 20 mM solution, serially diluted and then added to the incubation mixtures prior to initiating the incubation assay by addition of the membranes. Thioperamide (3 μM) was used to determine nonspecific binding. Binding incubations were conducted for 30 minutes at 25° C. and terminated by addition of 2 mL of ice cold 50 mM Tris-HCl (pH 7.7) and filtration through 0.3% polyethylenimine-soaked Unifilter plates (Packard). These filters were washed 4 additional times with 2 mL of ice-cold 50 mM Tris-HCl and dried for 1 hour. Radioactivity was determined using liquid scintillation counting techniques. Results were analyzed by Hill transformation and Ki values were determined using the Cheng-Prusoff equation.

Setting [1] is: male Sprague-Dawley rat brain cortical membranes, (3H)-N-α-methylhistamine ~0.6 nM, 30 minutes at 25° C., Cheng-Prusoff equation, read-out: Ki.

As a reminder, the Ki is a measure of affinity in units of concentration, obtained from inhibition or displacement. Take `CC1CCN(CCc2cc3cc(-c4ccc(C(=O)N5CCOCC5)cc4)ccc3o2)CC1` [Example 31, 4-(4-{2-[2-(4-methyl-1-piperidinyl)ethyl]-1-benzofuran-5-yl}benzoyl)morpholine]: the Ki under setting [1] is 24.6 nM. For `C[C@@H]1CCCN1CCc1cc2cc(-c3ccc(C#N)cc3)ccc2o1` [Example 1, 4-(2-{2-[(2R)-2-methylpyrrolidinyl]ethyl}-1-benzofuran-5-yl)benzonitrile], the Ki is 4.44 nM. Turning to `C[C@@H]1CC[C@@H](C)N1CCc1cc2cc(-c3ccc(C(=O)N4CCOCC4)cc3)ccc2o1` [Example 28, 4-[4-(2-{2-[(2R,5R)-2,5-dimethylpyrrolidinyl]ethyl}-1-benzofuran-5-yl)benzoyl]morpholine], under setting [1], the Ki came to 9.24 nM.

`CC1CCCN1CCc1cc2cc(-c3ccc(C#N)cc3)ccc2o1` (stereo not drawn) [Example 3, 4-{2-[2-(2-methyl-1-pyrrolidinyl)ethyl]-1-benzofuran-5-yl}benzonitrile] displayed a Ki of 7.45 nM.

Take `C[C@@H]1CCCN1CCc1cc2cc(C(=O)c3cc(F)cc(F)c3)ccc2o1` [Example 81, (3,5-difluorophenyl)(2-{2-[(2R)-2-methyl-1-pyrrolidinyl]ethyl}-1-benzofuran-5-yl)methanone]: the Ki under setting [1] was 1.4 nM. On the same count and under the same terms, next, `C[C@@H]1CCCN1CCc1cc2cc(C(=O)c3ccccc3F)ccc2o1` [Example 70, (2-fluorophenyl)(2-{2-[(2R)-2-methyl-1-pyrrolidinyl]ethyl}-1-benzofuran-5-yl)methanone]: 2.1 nM; `N#Cc1ccc(-c2ccc3oc(CCn4ccnc4)cc3c2)cc1` [Example 8, 4-{2-[2-(1H-imidazol1--yl)ethyl]-1-benzofuran-5-yl}benzonitrile]: 2000 nM; `Cc1cc(C(=O)c2ccc3oc(CCN4CCC[C@H]4C)cc3c2)ccc1F` [Example 74, (4-fluoro-3-methylphenyl)(2-{2-[(2R)-2-methyl-1-pyrrolidinyl]ethyl}-1-benzofuran-5-yl)methanone]: 3.5 nM. With `C[C@@H]1CCCN1CCc1cc2cc(C(=O)c3cccc(F)c3)ccc2o1` [Example 69, (3-fluorophenyl)(2-{2-[(2R)-2-methyl-1-pyrrolidinyl]ethyl}-1-benzofuran-5-yl)methanone], under setting [1], the Ki was found to be 0.6 nM. In the case of `O=C(c1ccc(-c2ccc3oc(CCN4CCCCCC4)cc3c2)cc1)N1CCOCC1` [Example 30, 4-(4-{2-[2-(azepane)ethyl]-1-benzofuran-5-yl}benzoyl)morpholine], the inhibition constant (Ki) under setting [1] worked out at 13.7 nM. As to `O=C(c1ccc(-c2ccc3oc(CCN4CC[C@@H](O)C4)cc3c2)nc1)N1CCOCC1` [Example 48, (3R)-1-(2-{5-[5-(4-morpholinylcarbonyl)-2-pyridinyl]-1-benzofuran-2-yl}ethyl)-3-pyrrolidinol], the Ki under setting [1] came out at 30.8 nM. Take `Cc1ccc(C(=O)c2ccc3oc(CCN4CCC[C@H]4C)cc3c2)cc1` [Example 80, (4-methylphenyl)(2-{2-[(2R)-2-methyl-1-pyrrolidinyl]ethyl}-1-benzofuran-5-yl)methanone]: the inhibitory constant (Ki) under setting [1] is 1.4 nM. As for `N#Cc1ccc(-c2ccc3oc(CCN4CCCCCC4)cc3c2)cc1` [Example 13, 4-{2-[2-(1-azepanyl)ethyl]-1-benzofuran-5-yl}benzonitrile], the Ki under setting [1] came to 78.4 nM. Regarding `C[C@@H]1CCCN1CCc1cc2cc(C(=O)c3ccc(Cl)cc3)ccc2o1` [Example 72, (4-chlorophenyl)(2-{2-[(2R)-2-methyl-1-pyrrolidinyl]ethyl}-1-benzofuran-5-yl)methanone], the Ki under setting [1] was 2.7 nM. Take `N#Cc1ccc(-c2ccc3oc(CCN4CCC[C@H]4CO)cc3c2)cc1` [Example 10, 4-(2-{2-[(2S)-2-(hydroxymethyl)pyrrolidinyl]ethyl}-1-benzofuran-5-yl)benzonitrile]: the Ki under setting [1] was determined as 22.9 nM.
